Earlier results, collected in patent US20210061712A1, “COMPOSITE STRUCTURAL MATERIAL COMPOSITIONS RESISTANT TO BIODEGRADATION” (The University of British Columbia, priority 2018, published 2021).

Test system: Desulfovibrio desulfricans strain
Settings: pipe's internal wall coated with the oxide in epoxy

For cuprous oxide, the “bacterial corrosion of concrete pipe” value is listed as “reduce the bacterial corrosion”.
